{"source": "IntAct's records for PubMed 18376416", "parents": {"B1": {"name": "ADP-ribosylation factor-like protein 3 (Mus musculus), Q9WUL7 (parent)", "chain": "MGLLSILRKLKSAPDQEVRILLLGLDNAGKTTLLKQLASEDISHITPTQGFNIKSVQSQGFKLNVWDIGGQRKIRPYWRSYFENTDILIYVIDSADRKRFEETGQELTELLEEEKLSCVPVLIFANKQDLLTAAPASEIAEGLNLHTIRDRVWQIQSCSALTGEGVQDGMNWVCKNVNAKKK", "partner": "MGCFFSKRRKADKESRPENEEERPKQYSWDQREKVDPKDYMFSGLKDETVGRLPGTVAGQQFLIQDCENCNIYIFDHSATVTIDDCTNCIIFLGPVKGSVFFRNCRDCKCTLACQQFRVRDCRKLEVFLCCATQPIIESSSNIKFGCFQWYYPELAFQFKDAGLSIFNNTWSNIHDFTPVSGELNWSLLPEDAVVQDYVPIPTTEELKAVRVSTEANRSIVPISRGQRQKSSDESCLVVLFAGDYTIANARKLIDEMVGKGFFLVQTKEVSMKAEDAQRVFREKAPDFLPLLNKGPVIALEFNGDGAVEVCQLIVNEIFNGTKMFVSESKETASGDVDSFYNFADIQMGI"}}, "data": [{"variants_of": "B1", "settings": "with xrp2_human RP2, O75695", "values": [{"variant": "MGLLSILRKLKSAPDQEVRILLLGLDNAGKTTLLKQLASEDISHITPTQGFNIKSVQSQGFKLNVWDIGGLRKIRPYWRSYFENTDILIYVIDSADRKRFEETGQELTELLEEEKLSCVPVLIFANKQDLLTAAPASEIAEGLNLHTIRDRVWQIQSCSALTGEGVQDGMNWVCKNVNAKKK", "effect of a mutation on the interaction": "disrupting interaction"}]}, {"variants_of": "B1", "settings": "with xrp2_human RP2, O75695", "remark": "another data set of the same source", "values": [{"variant": "MGLLSILRKLKSAPDQEVRILLLGLDNAGKTTLLKQLASEDISHITPTQGFNIKSVQSQGFKLNVWDIGGQAKIRPYWRSYFENTDILIYVIDSADRKRFEETGQELTELLEEEKLSCVPVLIFANKQDLLTAAPASEIAEGLNLHTIRDRVWQIQSCSALTGEGVQDGMNWVCKNVNAKKK", "effect of a mutation on the interaction": "decreasing interaction"}, {"variant": "MGLLSILRKLKSAPDQEVRILLLGLDNAGKTTLLKQLASEDISHITPTQGFNIKSVQSQGFKLNVWDIGGQRKIRPYWRSYFENTDILIYVIDSADRKRFEETGQELTELLEEEKLSCVPVLIFANKQDLLTAAPASEIAEGLNLHTIRDRVWQIQSCSALTGAGVQAGMNWVCKNVNAKKK", "effect of a mutation on the interaction": "decreasing interaction"}]}]}
